Consider three compounds from patent US20220280476A1, “KCNT1 INHIBITORS AND METHODS OF USE” (Praxis Precision Medicines, Inc., priority 2019, published 2022).

The chains behind the UniProt entries cited, without tags or fusion partners.
UniProt Q5JUK3, whole entry: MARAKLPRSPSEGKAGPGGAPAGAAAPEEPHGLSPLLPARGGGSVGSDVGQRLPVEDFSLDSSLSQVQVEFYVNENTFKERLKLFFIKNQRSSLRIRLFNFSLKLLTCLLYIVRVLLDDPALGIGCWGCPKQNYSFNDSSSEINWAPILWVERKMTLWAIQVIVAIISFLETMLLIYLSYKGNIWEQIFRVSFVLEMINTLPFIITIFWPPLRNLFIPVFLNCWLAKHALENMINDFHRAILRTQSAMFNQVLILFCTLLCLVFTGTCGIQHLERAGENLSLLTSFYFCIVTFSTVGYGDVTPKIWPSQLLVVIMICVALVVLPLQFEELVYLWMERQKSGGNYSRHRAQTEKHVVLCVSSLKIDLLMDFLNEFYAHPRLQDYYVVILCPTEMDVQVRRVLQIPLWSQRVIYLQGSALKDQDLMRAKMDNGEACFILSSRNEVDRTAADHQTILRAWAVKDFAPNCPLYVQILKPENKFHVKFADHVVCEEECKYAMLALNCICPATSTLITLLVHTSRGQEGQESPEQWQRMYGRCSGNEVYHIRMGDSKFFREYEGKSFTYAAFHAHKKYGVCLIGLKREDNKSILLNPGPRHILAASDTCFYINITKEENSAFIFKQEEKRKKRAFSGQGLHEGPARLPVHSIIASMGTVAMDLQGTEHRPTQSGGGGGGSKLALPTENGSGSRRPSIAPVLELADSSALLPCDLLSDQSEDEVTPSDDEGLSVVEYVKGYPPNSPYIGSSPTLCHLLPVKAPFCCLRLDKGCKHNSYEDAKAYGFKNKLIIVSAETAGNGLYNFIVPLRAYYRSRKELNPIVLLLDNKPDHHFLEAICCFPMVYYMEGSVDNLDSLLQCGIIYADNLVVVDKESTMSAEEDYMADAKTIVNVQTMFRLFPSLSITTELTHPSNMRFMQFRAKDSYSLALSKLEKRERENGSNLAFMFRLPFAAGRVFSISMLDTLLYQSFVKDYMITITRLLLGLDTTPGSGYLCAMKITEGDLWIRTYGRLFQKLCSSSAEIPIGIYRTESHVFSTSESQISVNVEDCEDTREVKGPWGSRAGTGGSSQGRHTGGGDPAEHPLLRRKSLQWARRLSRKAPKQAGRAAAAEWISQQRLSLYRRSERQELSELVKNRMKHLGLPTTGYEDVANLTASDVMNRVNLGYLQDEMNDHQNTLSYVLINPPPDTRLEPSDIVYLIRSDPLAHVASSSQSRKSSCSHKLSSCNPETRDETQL

Structures are written as SMILES.

The target of this experiment is KCNT1 (KNa1.1, Slack) (Homo sapiens, UniProt Q5JUK3). In words: KCNT1-WT-Basal patch clamp assay (SyncroPatch 384PE, HEK-TREX inducible cell line). The settings on record: read-out: KCNT1 WB IC50; tetracycline inducible HEK-TREX cells; perforated patch; holding -80 mV, 100 ms step to 0 mV; room temperature. Format: cell-based. Here is the method: KCNT1-WT-Basal—Patch Clamp Assay
Inhibition of KCNT1 (KNa1.1, Slack) was evaluated using a tetracycline inducible cell line (HEK-TREX). Currents were recorded using the SyncroPatch 384PE automated, patch clamp system. Pulse generation and data collection were performed with PatchController384 V1.3.0 and DataController384 V1.2.1 (Nanion Technologies). The access resistance and apparent membrane capacitance were estimated using built-in protocols. Current were recorded in perforated patch mode (10 μM escin) from a population of cells. The cells were lifted, triturated, and resuspended at 800,000 cells/ml. The cells were allowed to recover in the cell hotel prior to experimentation. Currents were recorded at room temperature. The external solution contained the following (in mM): NaCl 105, NMDG 40, KCl 4, MgCl2 1, CaCl2 5 and HEPES 10 (pH=7.4, Osmolarity ˜300 mOsm). The extracellular solution was used as the wash, reference and compound delivery solution. The internal solution contained the following (in mM): NaCl 70, KF 70, KCl 10, EGTA 5, HEPES 5 and Escin 0.01 (pH=7.2, Osmolarity ˜295 mOsm). Escin is made at a 5 mM stock in water, aliquoted, and stored at −20° C. The compound plate was created at 2× concentrated in the extracellular solution. The compound was diluted to 1:2 when added to the recording well. The amount of DMSO in the extracellular solution was held constant at the level used for the highest tested concentration. A holding potential of −80 mV with a 100 ms step to 0 mV was used. Mean current was measured during the step to 0 mV. […] The average mean current from 3 sweeps was calculated and the % inhibition of each compound was calculated. The % Inhibition as a function of the compound concentration was fit with a Hill equation to derive IC50, slope, min and max parameters. If KCNT1 inhibition was less than 50% at the highest tested concentration or if an IC50 could not be calculated, then a percent inhibition was reported in place of the IC50. […]
For orientation: The patch-clamp technique gives a direct electrical read-out from membranes.

Take `CS(=O)(=O)Cc1ccc(C(=O)N[C@@H]2CCc3cc(Cl)ccc32)s1`: the IC50 (commonly the concentration that inhibits the measured activity by half) is below 1 µM. For `CS(=O)(=O)c1ccc(C(=O)NC2CCCc3cc(Cl)ccc32)cc1` (single isomer, unassigned) the value was above 20 µM; for `CN(c1ccc(C(=O)N[C@@H]2CCc3cc(Cl)ccc32)cc1)S(=O)(=O)C(F)(F)F`, 1 to 20 µM.
